Results on 2 compounds are retold here after US8168651B2, “Protein kinase modulators” (Cylene Pharmaceuticals, Inc., priority 2008, dated 2012).

Amino acid sequences for entries named in this document (tags omitted).
UniProt P68400, whole entry: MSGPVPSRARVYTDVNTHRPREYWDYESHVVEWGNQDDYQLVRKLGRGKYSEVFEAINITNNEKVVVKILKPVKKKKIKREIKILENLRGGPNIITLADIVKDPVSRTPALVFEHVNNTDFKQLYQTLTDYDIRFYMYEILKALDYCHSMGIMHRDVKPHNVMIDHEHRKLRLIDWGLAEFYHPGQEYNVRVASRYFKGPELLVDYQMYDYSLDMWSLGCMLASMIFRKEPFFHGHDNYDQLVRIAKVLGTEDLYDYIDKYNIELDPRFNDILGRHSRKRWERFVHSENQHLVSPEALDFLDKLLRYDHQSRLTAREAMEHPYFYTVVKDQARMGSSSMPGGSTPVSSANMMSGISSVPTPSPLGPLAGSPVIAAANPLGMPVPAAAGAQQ
UniProt P11309, whole entry: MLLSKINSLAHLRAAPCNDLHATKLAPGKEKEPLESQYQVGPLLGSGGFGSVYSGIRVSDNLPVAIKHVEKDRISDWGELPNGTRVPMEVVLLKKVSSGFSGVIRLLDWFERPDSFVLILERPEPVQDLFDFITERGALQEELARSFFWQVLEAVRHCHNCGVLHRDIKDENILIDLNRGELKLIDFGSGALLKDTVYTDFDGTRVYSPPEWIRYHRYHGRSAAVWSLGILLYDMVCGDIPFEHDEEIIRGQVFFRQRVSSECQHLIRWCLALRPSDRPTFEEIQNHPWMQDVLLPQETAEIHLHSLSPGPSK
UniProt P67870, whole entry partner: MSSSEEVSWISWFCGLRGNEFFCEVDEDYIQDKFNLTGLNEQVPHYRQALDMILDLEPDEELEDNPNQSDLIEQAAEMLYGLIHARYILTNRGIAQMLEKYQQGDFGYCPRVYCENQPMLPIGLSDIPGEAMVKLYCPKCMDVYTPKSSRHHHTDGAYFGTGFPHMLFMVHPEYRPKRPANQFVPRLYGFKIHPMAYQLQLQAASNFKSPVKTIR

In one experiment the test system is MV-4-11. In words: Cell proliferation modulatory activity, MV-4-11. It counts as cell-based. The note with it: read-out: MV-4-11 (uM) cell proliferation modulatory activity; MV-4-11 cells.
A further experiment concerns K-562. In words: Cell proliferation modulatory activity, K-562. In kind it is cell-based. The note with it: read-out: K-562 (uM) cell proliferation modulatory activity; K-562 cells.
For a further experiment, the target named is recombinant human CK2 (Homo sapiens (Human), UniProt P68400). In words: CK2 assay (cell-free, 33P-ATP filter plate). It counts as biochemical. The following applies: 500 nM compound.
In a further experiment the target is recombinant human PIM1 (Homo sapiens (Human), UniProt P11309). In words: PIM-1 kinase activity in cell-free in vitro assay. In kind it is biochemical. The following applies: for PIM-1: % inh 500 nM: 500 nM compound; for IC50: read-out: PIM1 IC50.

`Fc1cc(F)cc(Nc2nc3cc(-c4nnn[nH]4)ccc3c3ccsc23)c1`: the values for the IC50 in the experiment on MV-4-11, in the experiment with K-562 and on recombinant human PIM1 were 3.66 µM, > 10 µM and 1010 nM, respectively. Also, the “CK2: % inh 500 nM” value at recombinant human CK2 is recorded as 57.35%. For the same compound, the “PIM-1: % inh 500 nM” value on recombinant human PIM1 was 50.279%.
In the case of `Fc1cccc(Nc2nc3cc(-c4nnn[nH]4)ccc3c3ccsc23)c1`, the IC50 was 2.19 µM in the experiment on MV-4-11, > 10 µM in the experiment on K-562 and 834 nM at recombinant human PIM1. Moreover, the “CK2: % inh 500 nM” value at recombinant human CK2 amounted to 57.627%. For the same compound, the “PIM-1: % inh 500 nM” value at recombinant human PIM1 came out at 50.289%.
